Yeast mating assay 2: variants of the scFv Ab-95

Target: peptide PDVDLGDISGINAS, taken from heptad repeat 2 (HR2) of SARS-CoV-2 spike.

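Phage display of a naive human antibody library on the peptide gave the parent. The library (AAYL52) carries one to three amino acid substitutions per variant, with no insertions or deletions. AlphaSeq pools MATa yeast showing the antibodies with MATalpha yeast showing the peptide. Mating (16 h, 30 °C) was followed by selection of diploids and sequencing of their barcodes. Each replicate has its own calibration line, from reference interactions of the BCL2 family. There are three technical replicates.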

Parent scFv Ab-95: VH joined to VL by a (GGGGS)3 linker. Changes lie in the light chain CDRs alone.
VH: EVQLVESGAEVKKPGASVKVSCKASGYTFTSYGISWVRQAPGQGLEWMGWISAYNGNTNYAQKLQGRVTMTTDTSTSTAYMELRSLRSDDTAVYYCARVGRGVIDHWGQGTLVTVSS
VL: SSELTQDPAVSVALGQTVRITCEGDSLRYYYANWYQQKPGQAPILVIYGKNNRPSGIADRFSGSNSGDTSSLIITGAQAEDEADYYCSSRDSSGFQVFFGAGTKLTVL

The parent's light chain CDRs are EGDSLRYYYAN, GKNNRPS, SSRDSSGFQVF; each variant's own CDRs replace them letter for letter. Values are apparent Kd, the geometric mean of the replicates that gave a signal; lower means stronger binding. "not detected" means that the variant was in the library but no mating with the target was seen in any replicate; the authors take this as a sign of poor binding, and no number exists. The list is sorted by this average, lowest first, undetected variants last. As a blank, each scFv also met three strains without target: over library AAYL52, 28% of these pairings were detected, typically at 8.2 µM and seldom below 800 nM. Parent in this assay: reference entry 200 nM, copy in this library 180 nM.

CDR-L1	CDR-L2	CDR-L3	Kd (apparent)	detected
GGDSLRYYYAN	GKNNRPS	SSRDASGNQVF	35 nM	3 of 3
EGDSLRGYYAN	GKNNREN	SSRDSSGFQVF	50 nM	3 of 3
EGTSLQYYYAN	GDNNRPS	SSRDSSGFQVF	51 nM	3 of 3
EGDSLRYTAAQ	GKNNRPS	SSRDSSGFQVF	59 nM	3 of 3
EGDSLRYYYAN	GKNNRES	SSRTSSGFDVF	64 nM	3 of 3
EGDSLRYYYAN	GHNNRPS	SSRGSSGFQVF	75 nM	3 of 3
EHDSLRYYYPN	GKNNRPS	SSRDSSGFQVS	100 nM	3 of 3
EGDSLRYGYHN	GKNNRPS	SSRDHSGFQVF	140 nM	3 of 3
KGRSLRYYYAN	GKNNRPQ	SSRDSSGFQVF	160 nM	3 of 3
KGDSLRYYYAN	GKNNRDS	SSRDSSWFQVF	210 nM	3 of 3
EGDDLVYYYAN	GKNNRPS	SSRDSSGFQVF	210 nM	3 of 3
MGDSLGYYYAN	GKNNRPS	SSRDSSGFQVF	240 nM	3 of 3
EGDSLRYYNAN	GKNKGPS	SSRDSSGFQVF	270 nM	3 of 3
EGDYLRQYYTN	GKNNRPS	SSRDSSGFQVF	370 nM	3 of 3
EGNSLRYYYAN	GKNNRPS	HSRDSLGFQVF	430 nM	3 of 3
EGDVLRYYYAN	GLNVRPS	SSRDSSGFQVF	490 nM	3 of 3
EGGSLAYYYAN	GKNNRPS	SSRESSGFQVF	610 nM	3 of 3
EGDSLRYYYAN	GKNARPS	SMRVSSGFQVF	630 nM	3 of 3
TGDSLRYYYAN	GKNNRPS	SSRDSSGGYVF	760 nM	3 of 3
EGDSWRYYCAN	GKNNRPT	SSRDSSGFQVF	860 nM	3 of 3
EADSLRYKYAN	GKNNRPS	CSRDSSGFQVF	880 nM	3 of 3
EGDSLRDYYAN	GKTHRPS	SSRDSSGFQVF	1.0 µM	3 of 3
EGDSLRYYEAN	GKNNRYS	SSRDSSKFQVF	1.1 µM	3 of 3
EGDSLKYYYAN	GKNNNPS	SSRDSSGFQVK	1.3 µM	1 of 3
EVDSLRYYYAN	GKNNRSS	RSRDSSGFQVF	1.4 µM	1 of 3
EGDSLRYYYAN	GKNNRPS	STHDSSGFEVF	1.6 µM	1 of 3
EGDSLRSYYAN	GSNNRYS	SSRDSSGFQVF	1.6 µM	3 of 3
EGASLRYYYAN	GKNNRPS	SSRDSSGFQRW	1.7 µM	3 of 3
EGDSLRYYYAN	GKNCRPS	SSRDSSGIQVF	1.8 µM	3 of 3
EGDSLRTYYAN	GKNWRPS	SSRDSSGWQVF	2.0 µM	3 of 3
EGDSIRYYYAQ	GKNNRPS	SKRDSSGFQVF	2.1 µM	1 of 3
EGDILRYSYAG	GKNNRPS	SSRDSSGFQVF	2.5 µM	3 of 3
EGDSLRYYYAN	GKNNIPS	SSRDSSGCQVV	3.0 µM	3 of 3
EGDSLTYYYAK	GKNNRPS	SSRDSVGFQVF	3.9 µM	1 of 3
EGDSLRYYYAN	GKNNRPS	SSRDDSGFPQF	3.9 µM	3 of 3
EGDSTRYYYFN	GKNNRGS	SSRDSSGFQVF	4.0 µM	3 of 3

The remaining entries, values ahead:

Kd (apparent)	detected	CDR-L1	CDR-L2	CDR-L3
4.5 µM	2 of 3	EGDSLRYYYAN	GKNHRPV	SSRDSSCFQVF
4.6 µM	2 of 3	EGDNLSYYYAN	GKNNRPS	SSRDSSGFQVF
5.0 µM	1 of 3	EGDSLRYYYAN	GKFNRPS	SSRDSSLFQVK
5.4 µM	2 of 3	EGDQLRYYYAN	GKNNRPS	SYRESSGFQVF
5.6 µM	2 of 3	EGISLRYYYAQ	GKNNRPS	ASRDSSGFQVF
8.1 µM	1 of 3	EGDSLRYYYAN	GKNCRPS	SSRKSSGGQVF
8.2 µM	2 of 3	EGDSFRYYYAN	GKNNRRS	SSRDSSPFQVF
8.3 µM	2 of 3	EGDSLRYYYQN	GKNNRPS	SSRDFIGFQVF
9.0 µM	2 of 3	EGDSLRYYYAN	AKNNRPQ	VSRDSSGFQVF
9.2 µM	3 of 3	EGDSLRYYYMN	GKNNRPS	SSRDSSVFQVF
9.4 µM	3 of 3	EGDSLRYYYAN	GKNNRPV	SSYDSSGFQVI
10 µM	2 of 3	ERDSLRYYYAN	GKRNRPS	SSRDSSGFQGF
13 µM	1 of 3	EGDSLRYYYTN	MKNNRPS	SSRDSSGFQVF
13 µM	1 of 3	EGDSLDYYYAN	IKNNRCS	SSRDSSGFQVF
15 µM	2 of 3	EGDYLRYYYAN	RKNNRPS	GSRDSSGFQVF
16 µM	1 of 3	EEDSLRYYYAN	IKNNRPS	SSRDSSGFQVF
16 µM	3 of 3	PGDSLRYYYHN	GKNNRPS	SSRDSSGVQVF
18 µM	2 of 3	EGDSLRYYYAN	GKNNRPS	GSRKSSGFQVF
18 µM	3 of 3	EGDSLRYYYAN	KKNNRPS	HSRDSSGFQVF
19 µM	1 of 3	EGDSLWYYYAN	YKNNRPS	SSRDNSGFQVF
20 µM	2 of 3	EGDSLRYYYGN	GKNNRPS	SSRDSSGFYVF
28 µM	2 of 3	EGDTLRYYYRN	SKNNRPS	SSRDSSGFQVF
46 µM	2 of 3	ELDSLRYRYAN	VKNNRPS	SSRDSSGFQVF
47 µM	1 of 3	EGDSLRYYYAN	GKNNRPK	SRPDSSGFQVF
60 µM	2 of 3	EGDALRYYYAN	GKINRPS	SSRSSSGFQVF
92 µM	1 of 3	EGDSLRYYHAW	GKNNRPS	SSRNSSGFQVF
100 µM	2 of 3	EGDSLRYYYAN	GKNNRHS	SLRDSSGFQVC
110 µM	1 of 3	IGDSLRYYYAF	GKNNRPS	WSRDSSGFQVF
360 µM	1 of 3	EGDELRYYYAN	GKNNRPS	SSEDSSGCQVF
540 µM	1 of 3	EGDSLRYYYAP	GKNNRPR	SSRDSSPFQVF
not detected	0 of 3	EGDSLRYYYAQ	GKNNLPS	SSNDSSGFQVF
not detected	0 of 3	EGGSLRYYYAN	GKNNRPS	SSRDKSGFQSF
not detected	0 of 3	EGDSLRYYYAA	GKINRQS	SSRDSSGFQVF
not detected	0 of 3	EGDSLAYYYAN	MKNNRPN	SSRDSSGFQVF
not detected	0 of 3	EGDSTRYYYAN	GKPNRPS	SSRDSSGFQVF
not detected	0 of 3	EGDSLRYYYAN	GDNNRPS	DSRDSSGFQVF

The first 4 entries again:

CDR-L1,CDR-L2,CDR-L3,Kd (apparent),detected
GGDSLRYYYAN,GKNNRPS,SSRDASGNQVF,35 nM,3 of 3
EGDSLRGYYAN,GKNNREN,SSRDSSGFQVF,50 nM,3 of 3
EGTSLQYYYAN,GDNNRPS,SSRDSSGFQVF,51 nM,3 of 3
EGDSLRYTAAQ,GKNNRPS,SSRDSSGFQVF,59 nM,3 of 3

From the AlphaSeq antibody data of Engelhart et al. 2022 (doi:10.1038/s41597-022-01779-4), copy in the FLAb collection.